The target in this assay is recombinant human PCSK9^D374Y protein (human) (UniProt Q8NBP7). The experiment in a line: cell-based or functional assay.
For the substance “AF-mab023_18 (antibody; biotinylated in the ELISA assays)”, the IC50 (nM), LDL uptake by HepG2 cells amounted to 0.99 nM.
In the case of “AF-mab023_14 (antibody; biotinylated in the ELISA assays)”, the IC50 (nM), LDL uptake by HepG2 cells came out at 1.25 nM.
For “AF-mab023_01 (antibody; biotinylated in the ELISA assays)” the value was 1.2 nM; for “AF-mab023_12 (antibody; biotinylated in the ELISA assays)”, 1.21 nM; for “AF-mab023_11 (antibody; biotinylated in the ELISA assays)”, 1.28 nM.

Values taken from US20180355059A1.
